The values below come from PMC10920890, “Biosensor and machine learning-aided engineering of an amaryllidaceae enzyme” (Nature Communications, 2024).

The subject of this series is Oc1ccc(CCNCc2ccc(O)c(O)c2)cc1. Kind of series: purified protein. As to conditions: 500 µM SAM, 2 mM CaCl2, PBS pH 7.5, 37 °C.
Setting [1] is: Km calculated as kcat/(kcat/Km).
Setting [2] is: fit with substrate inhibition, limits only.

Where only a bound is given, the exact number is not on record here.

Consider “Nb4OMT (norbelladine 4'-O-methyltransferase) (Narcissus aff. pseudonarcissus MK-2014)”, for which, under setting [1], the Km was 62 (37–104) μM, the kcat is 1.22 s⁻¹ and the kcat/Km was 19700 M⁻¹ s⁻¹.

Consider “Nb4OMT (norbelladine 4'-O-methyltransferase) (Narcissus aff. pseudonarcissus MK-2014; A53M)”, for which, under setting [2], the kcat was above 3.17 s⁻¹ and the kcat/Km is above 35000 M⁻¹ s⁻¹.

Turning to “Nb4OMT (norbelladine 4'-O-methyltransferase) (Narcissus aff. pseudonarcissus MK-2014; A53M/E36P/G40E)”, under setting [2], the kcat is above 2 s⁻¹ and the kcat/Km is above 23300 M⁻¹ s⁻¹.
